AlphaSeq binding of Ab-91 heavy chain variants to a spike HR2 peptide

Values reported by Engelhart et al. 2022, doi:10.1038/s41597-022-01779-4 (FLAb copy).

Target peptide (SARS-CoV-2 spike, HR2 region): PDVDLGDISGINAS

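Phage display of a naive human antibody library on the peptide gave the parent. In library AAYL51, one, two or three CDR residues were substituted; doubles and triples were drawn at random. Affinity was read by AlphaSeq, a pooled yeast mating assay with surface-displayed partners. The frequency of each diploid, read from paired DNA barcodes, reflects how well the two displayed proteins bind. A regression on co-assayed BCL2-family reference pairs converts the normalised counts of each replicate to an apparent Kd. Mating was done three times.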

Each scFv is VL, the linker GGGGSGGGGSGGGGS, VH, as in the parent Ab-91, and differs from it in the CDRs of the heavy chain only.
VL: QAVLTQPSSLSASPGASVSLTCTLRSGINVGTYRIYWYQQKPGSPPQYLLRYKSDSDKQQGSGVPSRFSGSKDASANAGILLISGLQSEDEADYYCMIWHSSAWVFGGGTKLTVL
VH: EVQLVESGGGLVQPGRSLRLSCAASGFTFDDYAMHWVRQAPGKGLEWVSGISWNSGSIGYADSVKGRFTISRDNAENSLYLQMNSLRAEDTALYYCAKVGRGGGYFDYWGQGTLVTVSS

Changes read parent residue, position, new residue, counted from the first residue of the VH shown.
Numbers give log10(Kd / nM), so 0 is 1 nM and 3 is 1 µM. Smaller is tighter.
Replicates are averaged; those with no signal do not enter the mean.
An entry "nd" has no value in the source: the pair was not observed among the diploids in any replicate. This suggests poor binding but is not conclusive.
Background: pairings of library AAYL51 with three empty control strains gave a value in 21% of cases (median 4.54, 5th percentile 3.26). Values in that range, when seen in few replicates, are hard to tell from nonspecific mating. Also given: how often the same scFv was detected with the empty control strains.

changes	mean, log10 nM	detected	signal with controls
G56Y+G59C+G102D	nd	0 of 3	1 of 9
H35M+D62V+G103P	3.67	1 of 3	1 of 9
Y32R+W53G+G102P	nd	0 of 3	0 of 9
G50W+Y60G+R101G	nd	0 of 3	0 of 9
F27E+Y32I+I58P	3.86	2 of 3	1 of 9
I58Q+K65R+V99A	3.97	1 of 3	2 of 9
Y32W+A61V+D62G	nd	0 of 3	0 of 9
F27K+F29W+M34G	nd	0 of 3	1 of 9
S52M+N54V+G56A	nd	0 of 3	0 of 9
W53I+I58E+V99M	nd	0 of 3	0 of 9
S52Y+K65H	nd	0 of 3	4 of 9
D30L+A33E+V99L	5.17	3 of 3	3 of 9
D30E+H35A	nd	0 of 3	4 of 9
G59Y+D62K+V64A	4.58	1 of 3	2 of 9
R101D+Y105H	4.92	1 of 3	2 of 9
G50C+A61E+Y105V	3.86	1 of 3	1 of 9
F29W+M34C+W53G	4.67	1 of 3	5 of 9
T28K+D31W+I58F	3.67	2 of 3	3 of 9
S52N+S57N+A61F	4.37	1 of 3	2 of 9
D30T+D31C+G56K	nd	0 of 3	0 of 9
D30Q+M34Y+G59P	nd	0 of 3	1 of 9
M34H+S63C+D107I	4.04	1 of 3	3 of 9
G59E+V99A+G104A	4.02	3 of 3	1 of 9
G26D+F27P	1.55	3 of 3	2 of 9
A33R+R101V+G103T	5.38	1 of 3	4 of 9
Y60M+G102A+Y108R	3.39	1 of 3	0 of 9
F27I+S57Y+V99Q	5.20	2 of 3	4 of 9
H35Y+G100F+D107T	3.81	2 of 3	1 of 9
G26Y+I58K+F106C	4.75	2 of 3	4 of 9
G26K+F29T+Y105D	nd	0 of 3	2 of 9
H35T+W53R+R101I	3.13	1 of 3	0 of 9
S52L+S57L	4.76	1 of 3	3 of 9
G26D+D30F+S57A	4.55	1 of 3	0 of 9
S63D+G103P	4.65	1 of 3	1 of 9
F29E+S57H+G103W	4.53	2 of 3	2 of 9
F29P+W53S+S55I	4.52	3 of 3	4 of 9
G26S+Y32R+I51Q	5.80	1 of 3	2 of 9
F29P+A33F+G103Q	nd	0 of 3	2 of 9
S55A+I58K+Y60K	nd	0 of 3	2 of 9
D62L+G100F+G103H	nd	0 of 3	0 of 9
D30F+N54F+G59T	nd	0 of 3	0 of 9
F29L+Y32R+G102Q	nd	0 of 3	3 of 9
F27E+A33E+I58T	5.61	3 of 3	3 of 9
V99T+F106Q	5.22	2 of 3	2 of 9
M34Y+G100L+G103E	4.95	1 of 3	5 of 9
N54H+Y108I	1.80	3 of 3	0 of 9
D30Y+F106Y+D107Q	1.64	3 of 3	2 of 9
G50E+S52Y+W53E	nd	0 of 3	1 of 9
T28F+W53Y+S63H	nd	0 of 3	0 of 9
A33S+Y60K+D107K	nd	0 of 3	2 of 9
G103R+G104C+D107H	3.32	3 of 3	3 of 9
F27C+G56H+R101M	nd	0 of 3	0 of 9
Y105H+D107G	nd	0 of 3	0 of 9
G50M+I58P+Y60G	5.47	1 of 3	3 of 9
G56I+V64C+Y105P	4.77	1 of 3	2 of 9
S57K+R101T+G103E	5.30	2 of 3	3 of 9
I51E+K65E+Y108I	4.48	1 of 3	2 of 9

The opening 6 entries, copied out:

changes	mean, log10 nM	detected	signal with controls
G56Y+G59C+G102D	nd	0 of 3	1 of 9
H35M+D62V+G103P	3.67	1 of 3	1 of 9
Y32R+W53G+G102P	nd	0 of 3	0 of 9
G50W+Y60G+R101G	nd	0 of 3	0 of 9
F27E+Y32I+I58P	3.86	2 of 3	1 of 9
I58Q+K65R+V99A	3.97	1 of 3	2 of 9

Parent in this assay: reference entry 1.86, copy in this library 0.88.